Drawing on patent US20050196403A1, this text covers IC50 for one sequence.

The assay concerns the target HLA-A*2401 (human). As to the kind of experiment: competition with 125I probe peptide, purified HLA class I.

TYQGSYGF (p53 position 102) (peptide) returned an IC50 of 0.109 µM. In other words, the sub-micromolar range.
